Experiment: Circular dichroism, helicity
Assay type: physicochemical
Conditions: CD 185-260 nm, 0.2 mg/ml protein in 10 mM phosphate pH 7.3, 150 mM NaF, 298 K; CDSSTR, reference set 3

| SMILES | Helicity (%) of RLIP76 RBDs [%] |
| --- | --- |
| CC[C@H](C)[C@H](NC(=O)CNC(=O)CNC(=O)[C@H](CCC(N)=O)NC(=O)[C@H](CC(C)C)NC(=O)[C@H](CC(=O)O)NC(=O)[C@H](CCCNC(=N)N)NC(=O)[C@H](C)NC(=O)[C@H](CC(C)C)NC(=O)[C@H](CO)NC(=O)[C@H](CC(N)=O)NC(=O)[C@H](C)NC(=O)[C@H](CC(C)C)NC(=O)[C@H](Cc1ccccc1)NC(=O)[C@H](CCC(=O)O)NC(=O)[C@H](CCC(N)=O)NC(=O)[C@H](CCCNC(=N)N)NC(=O)[C@H](CCCNC(=N)N)NC(=O)[C@@H](NC(=O)[C@H](CCC(=O)O)NC(=O)[C@H](CCC(=O)O)NC(=O)[C@H](CCCCN)NC(=O)[C@@H](NC(=O)CNC(=O)[C@H](C)NC(=O)[C@H](CCC(N)=O)NC(=O)[C@@H](NC(=O)[C@@H](N)CCC(=O)O)[C@@H](C)O)[C@@H](C)CC)[C@@H](C)CC)C(=O)N[C@@H](CCCCN)C(=O)N[C@@H](CC(=O)O)C(=O)N[C@@H](CC(C)C)C(=O)N[C@@H](CO)C(=O)N[C@@H](CCCCN)C(=O)N[C@@H](CCC(=O)O)C(=O)N[C@@H](Cc1c[nH]cn1)C(=O)N[C@@H](CCCNC(=N)N)C(=O)N[C@@H](CC(C)C)C(=O)N[C@@H](Cc1c[nH]c2ccccc12)C(=O)N[C@@H](CCC(=O)O)C(=O)N[C@H](C(=O)N[C@@H](CC(C)C)C(=O)N[C@@H](CCCNC(=N)N)C(=O)N[C@H](C(=O)N[C@@H](CC(C)C)C(=O)N[C@H](C(=O)N[C@@H](C)C(=O)N[C@@H](CC(C)C)C(=O)N[C@@H](CCCNC(=N)N)C(=O)N[C@@H](CCCNC(=N)N)C(=O)N[C@@H](CCCCN)C(=O)N[C@@H](CC(C)C)C(=O)N[C@@H](CCCNC(=N)N)C(=O)N[C@@H](CCC(=O)O)C(=O)N[C@@H](C)C(=O)O)[C@@H](C)O)[C@@H](C)CC)C(C)C [HLR L409A/H413A] | 88 |
| CC[C@H](C)[C@H](NC(=O)CNC(=O)CNC(=O)[C@H](CCC(N)=O)NC(=O)[C@H](CC(C)C)NC(=O)[C@H](CC(=O)O)NC(=O)[C@H](CCCNC(=N)N)NC(=O)[C@H](C)NC(=O)[C@H](CC(C)C)NC(=O)[C@H](CO)NC(=O)[C@H](CC(N)=O)NC(=O)[C@H](C)NC(=O)[C@H](CC(C)C)NC(=O)[C@H](Cc1ccccc1)NC(=O)[C@H](CCC(=O)O)NC(=O)[C@H](CCC(N)=O)NC(=O)[C@H](CCCNC(=N)N)NC(=O)[C@H](CCCNC(=N)N)NC(=O)[C@@H](NC(=O)[C@H](CCC(=O)O)NC(=O)[C@H](CCC(=O)O)NC(=O)[C@H](CCCCN)NC(=O)[C@@H](NC(=O)CNC(=O)[C@H](C)NC(=O)[C@H](CCC(N)=O)NC(=O)[C@@H](NC(=O)[C@@H](N)CCC(=O)O)[C@@H](C)O)[C@@H](C)CC)[C@@H](C)CC)C(=O)N[C@@H](CCCCN)C(=O)N[C@@H](CC(=O)O)C(=O)N[C@@H](CC(C)C)C(=O)N[C@@H](CO)C(=O)N[C@@H](CCCCN)C(=O)N[C@@H](CCC(=O)O)C(=O)N[C@@H](CCC(=O)O)C(=O)N[C@@H](CCCNC(=N)N)C(=O)N[C@@H](CC(C)C)C(=O)N[C@@H](Cc1c[nH]c2ccccc12)C(=O)N[C@@H](CCC(=O)O)C(=O)N[C@H](C(=O)N[C@@H](CCC(N)=O)C(=O)N[C@@H](CCCNC(=N)N)C(=O)N[C@H](C(=O)N[C@@H](CC(C)C)C(=O)N[C@H](C(=O)N[C@@H](C)C(=O)N[C@@H](CC(C)C)C(=O)N[C@@H](CCCCN)C(=O)N[C@@H](CCCNC(=N)N)C(=O)N[C@@H](CCCCN)C(=O)N[C@@H](CC(C)C)C(=O)N[C@@H](CCCNC(=N)N)C(=O)N[C@@H](CCC(=O)O)C(=O)N[C@@H](C)C(=O)O)[C@@H](C)O)[C@@H](C)CC)C(C)C [L409A/H413A] | 87 |

Reference: PMC7949049 (The Journal of Biological Chemistry, 2020)
